Experimental data as given in PMC7504044 (2020).

Key:
[1] = target: T1, GST–β-DG (full-length β-dystroglycan fused to GST) (human, UniProt Q14118 654-895); assay: SPR
T1 chain: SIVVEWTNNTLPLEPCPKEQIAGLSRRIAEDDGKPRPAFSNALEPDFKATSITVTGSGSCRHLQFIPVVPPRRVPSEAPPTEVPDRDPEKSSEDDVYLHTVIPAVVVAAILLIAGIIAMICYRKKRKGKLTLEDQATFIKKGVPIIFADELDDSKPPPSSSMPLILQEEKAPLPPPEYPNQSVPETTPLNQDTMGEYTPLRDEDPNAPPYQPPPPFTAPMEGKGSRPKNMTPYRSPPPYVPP

[2] = target: T2, GST–TM (transmembrane domain of β-DG fused to GST) (human); assay: SPR
T2 chain: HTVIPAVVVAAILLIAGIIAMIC

koff [1]: 0.00205 s⁻¹ | koff [2]: 0.00215 s⁻¹
B1: GST–emerin (full-length emerin fused to GST) (natural protein)
chain: MDNYADLSDTELTTLLRRYNIPHGPVVGSTRRLYEKKIFEYETQRRRLSPPSSSAASSYSFSDLNSTRGDADMYDLPKKEDALLYQSKGYNDDYYEESYFTTRTYGEPESAGPSRAVRQSVTSFPDADAFHHQVHDDDLLSSSEEECKDRERPMYGRDSAYQSITHYRPVSASRSSLDLSYYPTSSSTSFMSSSSSSSSWLTRRAIRPENRAPGAGLGQDRQVPLWGQLLLFLVFVIVLFFIYHFMQAEEGNPF
